Binding of CDR-mutated scFvs to a peptide of the spike HR2 region

The measurements come from Li et al. 2023 (doi:10.1038/s41467-023-39022-2) through the FLAb antibody collection.

All variants were tested on one target, the spike HR2 peptide PDVDLGDISGINAS (SARS-CoV-2).

The variants keep the light chain, the linker and the frameworks of Ab-14 (scFv order VH, a 15-residue (Gly4Ser)3 linker, VL).
VH: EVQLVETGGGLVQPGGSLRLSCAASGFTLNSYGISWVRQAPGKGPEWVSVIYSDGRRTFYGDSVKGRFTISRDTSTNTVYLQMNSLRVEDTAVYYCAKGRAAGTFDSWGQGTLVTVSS
VL: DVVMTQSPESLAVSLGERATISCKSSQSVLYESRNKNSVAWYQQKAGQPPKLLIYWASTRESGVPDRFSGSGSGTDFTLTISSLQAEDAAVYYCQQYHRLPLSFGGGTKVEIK

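The starting antibody came from a phage panning campaign against this peptide. This is the validation round: designs drawn from the data on random variants, tested in the same kind of assay. Several design methods are mixed in this list. Affinity was read by AlphaSeq, a pooled yeast mating assay with surface-displayed partners. The frequency of each diploid, read from paired DNA barcodes, reflects how well the two displayed proteins bind. The ratio of observed to expected reads was calibrated, replicate by replicate, on BCL2-family standards whose Kd was known from biolayer interferometry. The assay was run in six technical replicates.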

Each variant is given by its three heavy chain CDRs, as the data file delimits them; those of the parent are GFTLNSYGIS, VIYSDGRRTFYGDSVK, GRAAGTFDS. Variants here have more than six changes. Scale: log10 of Kd in nM, estimated from mating counts; low values are strong binders. Averages over replicates are reported, and they cover detected replicates only. "ND" means that the variant was in the library but no mating with the target was seen in that replicate; the authors take this as a sign of poor binding, and no number exists. Three control strains display no target. For all heavy chain designs, 1% of the pairings with them gave a signal, with a median of 2.08 and one signal in twenty below 0.84, so weak values seen in few replicates may be background. In the paper, a design with two or fewer of six values counts as a poor binder. Values of this round are not directly comparable with the first-round values of the same sequences.

| CDR-H1 | CDR-H2 | CDR-H3 | log10 Kd, replicates | mean log10 Kd (nM) |
|---|---|---|---|---|
| GFDINEYGIS | VIYADGSRQAYADTVK | GSWGCVFYV | ND / ND / ND / ND / ND / ND | ND |
| GFDLNEYGIS | VIYADGRRTAYTDSVK | GGNAGTFDQ | 0.18 / -0.41 / -0.44 / -0.36 / -0.70 / -0.14 | -0.31 |
| GFDLDEYGIS | VIYADGQRTAYADDVK | GNTAGTFDV | 0.19 / -0.50 / -0.50 / -0.01 / -0.04 / 0.11 | -0.12 |
| GFKIDEYGIS | VIYADGHRTQYSEQVK | GVNMGFLVE | ND / ND / ND / ND / ND / ND | ND |
| GEDLQEYGIS | VIYADGFRQSYSEKVK | GQHAGFLVK | ND / ND / 1.08 / ND / ND / ND | 1.08 |
| GFDVEEYGIS | VIYADGRQSQYANSVK | GAIRGTFDM | ND / ND / ND / ND / ND / ND | ND |
| GFNLDEYGIS | VIYADGRRTFYADSVK | GSNGGTFDT | 0.92 / 0.23 / 1.34 / 0.73 / 0.75 / 0.68 | 0.77 |
| GFDLNEYGIS | VIYADGRRTAYIDSVK | GNQAGTFDQ | 0.58 / -0.04 / -0.10 / -0.36 / -0.58 / -0.22 | -0.12 |
| GFDLNEYGIS | VIYADGMRTFYADNVK | GQVAGTFDV | 0.13 / 0.14 / 0.22 / 0.36 / 0.06 / 0.49 | 0.23 |
| GFDLNEYGIS | VIYADGMRTAYTDDVK | GENAGTFDI | -0.27 / -0.59 / 0.22 / -0.86 / -0.44 / 0.13 | -0.30 |
| GFDIEEYGIS | VIYADGDRANYDQKVK | GTIAGTLDM | 0.53 / 0.64 / 0.70 / 0.47 / 0.43 / 0.68 | 0.58 |
| GFDLNEYGIS | VIYADGSRTAYVDSVK | GNNAGTFDV | -0.21 / -0.24 / -0.29 / -0.40 / -0.38 / -0.17 | -0.28 |
| EFTLNSYGIS | VIYSKQRRTFYSDSPK | GRAGWTFDS | ND / ND / ND / ND / ND / ND | ND |
| GFDLDEYGIS | VIYADGKRTAYADSVK | GETAGTFDL | -0.62 / -0.02 / -1.05 / -0.78 / -1.00 / -0.53 | -0.67 |
| GFKINEYGIS | VIYADGMRRSYADSFK | GAESGYMVV | ND / ND / ND / ND / ND / ND | ND |
| GFDLNEYGIS | VIYADGVRKAYADSVK | GNNAGTFDL | -0.59 / -0.37 / -0.30 / -0.49 / -0.57 / -0.50 | -0.47 |
| GFNLDEYGIS | VIYADGQRKVYTQDVK | GLYTFKKGI | ND / ND / ND / ND / ND / ND | ND |
| GFDLNEYGIS | VIYADGQRTAYADSVK | GQVAGTFDQ | 0.12 / -0.62 / -0.14 / -0.93 / -0.52 / -0.87 | -0.49 |
| GFDLNEYGIS | VIYADGSRTAYADNVK | GNVAGTFDV | -0.69 / -0.84 / -0.85 / -0.87 / -0.84 / -0.42 | -0.75 |
| GDSLAEYGIS | VIYADGMRSKYSDSFK | GQVAGYFGV | ND / ND / ND / ND / ND / ND | ND |
| GFDLNEYGIS | VIYADGRRTFYADSVK | GNIAGTFNS | -0.55 / -0.78 / -0.84 / -0.99 / -0.90 / -0.63 | -0.78 |
| GFDLNEYGIS | VIYADGSRVAYAQNVK | GKNDAISSN | ND / ND / ND / ND / ND / ND | ND |
| GFDLEDYGIS | VIYADGRRTAYADSVK | GEEAGTFDL | -0.10 / 0.03 / -0.47 / -0.39 / -0.16 / -0.36 | -0.24 |
| GFDLNEYGIS | VIYADGRRTYYADSVK | GEIAGTFDQ | ND / -1.33 / 1.27 / -0.07 / -1.81 / -1.36 | -0.66 |
| GFDLEEYGIS | VIYADGHRSKYANSVK | GGQVDFALL | ND / ND / ND / ND / ND / ND | ND |
| GRDIEEYGIS | VIYADGLRTVYHDSVK | GQNAGFSIT | ND / ND / ND / ND / ND / ND | ND |
| GFDLNEYGIS | VIYADGMRTYYADSVK | GQNAGTFDQ | 0.01 / -0.02 / -0.01 / 0.04 / 0.07 / -0.14 | -0.01 |
| GFDLNEYGIS | VIYADGVRTAYADDVK | GNTAGTFDQ | 2.50 / -0.19 / -0.11 / -0.50 / -0.36 / -0.77 | 0.09 |
| GMNIDEYGIS | VIYADGLRYHYANSVK | GEMAGFFMD | ND / ND / ND / ND / ND / ND | ND |
| GFDLNEYGIS | VIYADGRRTFYSDSVK | GQVAGTFNV | -0.40 / -0.82 / -0.90 / -0.45 / -0.69 / -0.44 | -0.62 |
| GFDLNEYGIS | VIYADGVRTAYIDSVK | GSNAGTFDV | -0.14 / -0.09 / -0.49 / -0.58 / -0.46 / -0.39 | -0.36 |
| FQLLDDYGIS | VIYADGKRVAYVADVK | GNVAGTFDV | 1.00 / 0.92 / 0.68 / 0.95 / 1.30 / 0.88 | 0.96 |

Extract of 3 entries:

{"CDR-H1": "GFDLNEYGIS", "CDR-H2": "VIYADGMRTAYTDDVK", "CDR-H3": "GENAGTFDI", "log10 Kd, replicates": "-0.27 / -0.59 / 0.22 / -0.86 / -0.44 / 0.13", "mean log10 Kd (nM)": "-0.30"}
{"CDR-H1": "GFDLNEYGIS", "CDR-H2": "VIYADGRRTAYTDSVK", "CDR-H3": "GGNAGTFDQ", "log10 Kd, replicates": "0.18 / -0.41 / -0.44 / -0.36 / -0.70 / -0.14", "mean log10 Kd (nM)": "-0.31"}
{"CDR-H1": "GFDLEDYGIS", "CDR-H2": "VIYADGRRTAYADSVK", "CDR-H3": "GEEAGTFDL", "log10 Kd, replicates": "-0.10 / 0.03 / -0.47 / -0.39 / -0.16 / -0.36", "mean log10 Kd (nM)": "-0.24"}